The target in experiment [1] is T1, EGFR-L858R/T790M (Homo sapiens, UniProt P00533, L858R/T790M). The experiment can be described thus: Kinetic characterization (Ki, kinact), EGFR-L858R/T790M.
The target in experiment [2] is T2, EGFR-wt (Homo sapiens, UniProt P00533). The experiment can be described thus: HTRF KinEASE-TK activity-based assay, EGFR-wt. To be noted: ATP at Km (9.5 µM), 30 min preincubation, mean ± SD of three independent measurements in duplicates. Background: Time-resolved FRET reads energy transfer from a long-lived donor to a nearby acceptor.
The target in experiment [3] is T1, EGFR-L858R/T790M. The experiment can be described thus: HTRF KinEASE-TK activity-based assay, EGFR-L858R/T790M. Conditions: ATP at Km (4 µM), 30 min preincubation, mean ± SD of three independent measurements in duplicates.
In experiment [4] the target is T3, EGFR-L858R (Homo sapiens, UniProt P00533, L858R). Put plainly: HTRF KinEASE-TK activity-based assay, EGFR-L858R.
Experiment [5] has as its target T3, EGFR-L858R. Put plainly: Kinetic characterization (Ki, kinact), EGFR-L858R.
For experiment [6], the target named is T2, EGFR-wt. Put plainly: Kinetic characterization (Ki, kinact), EGFR-wt.

Protein sequences, listed by entry. Tags and fused reporters are not part of them. Residues count along the entry.
UniProt P00533, 25-1210 T790M/L858R: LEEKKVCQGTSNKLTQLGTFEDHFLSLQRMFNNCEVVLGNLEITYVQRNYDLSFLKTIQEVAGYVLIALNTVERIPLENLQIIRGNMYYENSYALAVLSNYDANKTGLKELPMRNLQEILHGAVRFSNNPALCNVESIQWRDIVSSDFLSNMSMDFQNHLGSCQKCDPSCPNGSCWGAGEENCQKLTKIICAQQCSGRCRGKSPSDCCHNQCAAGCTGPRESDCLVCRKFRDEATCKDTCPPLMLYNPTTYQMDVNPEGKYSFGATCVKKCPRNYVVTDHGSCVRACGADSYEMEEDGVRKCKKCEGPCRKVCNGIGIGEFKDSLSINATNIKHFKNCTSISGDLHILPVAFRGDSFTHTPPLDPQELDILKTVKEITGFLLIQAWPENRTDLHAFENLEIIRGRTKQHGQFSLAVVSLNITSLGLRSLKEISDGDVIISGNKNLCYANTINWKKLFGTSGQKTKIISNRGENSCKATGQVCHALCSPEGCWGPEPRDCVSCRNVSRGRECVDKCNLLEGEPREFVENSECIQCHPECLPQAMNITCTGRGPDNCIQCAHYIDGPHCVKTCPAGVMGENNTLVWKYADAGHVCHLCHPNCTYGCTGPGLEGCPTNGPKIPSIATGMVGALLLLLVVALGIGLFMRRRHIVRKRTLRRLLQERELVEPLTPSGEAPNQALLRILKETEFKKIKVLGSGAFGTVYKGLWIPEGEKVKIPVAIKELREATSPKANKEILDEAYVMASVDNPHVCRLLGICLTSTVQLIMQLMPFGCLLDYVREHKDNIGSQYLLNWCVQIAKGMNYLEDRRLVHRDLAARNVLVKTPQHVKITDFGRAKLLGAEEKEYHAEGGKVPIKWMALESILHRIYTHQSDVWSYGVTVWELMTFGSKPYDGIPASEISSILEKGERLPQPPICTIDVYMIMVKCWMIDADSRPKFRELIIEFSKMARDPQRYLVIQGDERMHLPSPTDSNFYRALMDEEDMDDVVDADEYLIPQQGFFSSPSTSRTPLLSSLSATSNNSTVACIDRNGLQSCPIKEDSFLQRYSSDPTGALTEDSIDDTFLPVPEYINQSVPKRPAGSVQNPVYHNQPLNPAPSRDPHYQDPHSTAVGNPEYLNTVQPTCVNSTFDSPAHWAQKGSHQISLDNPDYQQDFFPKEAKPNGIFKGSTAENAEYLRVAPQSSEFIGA
UniProt P00533, 25-1210: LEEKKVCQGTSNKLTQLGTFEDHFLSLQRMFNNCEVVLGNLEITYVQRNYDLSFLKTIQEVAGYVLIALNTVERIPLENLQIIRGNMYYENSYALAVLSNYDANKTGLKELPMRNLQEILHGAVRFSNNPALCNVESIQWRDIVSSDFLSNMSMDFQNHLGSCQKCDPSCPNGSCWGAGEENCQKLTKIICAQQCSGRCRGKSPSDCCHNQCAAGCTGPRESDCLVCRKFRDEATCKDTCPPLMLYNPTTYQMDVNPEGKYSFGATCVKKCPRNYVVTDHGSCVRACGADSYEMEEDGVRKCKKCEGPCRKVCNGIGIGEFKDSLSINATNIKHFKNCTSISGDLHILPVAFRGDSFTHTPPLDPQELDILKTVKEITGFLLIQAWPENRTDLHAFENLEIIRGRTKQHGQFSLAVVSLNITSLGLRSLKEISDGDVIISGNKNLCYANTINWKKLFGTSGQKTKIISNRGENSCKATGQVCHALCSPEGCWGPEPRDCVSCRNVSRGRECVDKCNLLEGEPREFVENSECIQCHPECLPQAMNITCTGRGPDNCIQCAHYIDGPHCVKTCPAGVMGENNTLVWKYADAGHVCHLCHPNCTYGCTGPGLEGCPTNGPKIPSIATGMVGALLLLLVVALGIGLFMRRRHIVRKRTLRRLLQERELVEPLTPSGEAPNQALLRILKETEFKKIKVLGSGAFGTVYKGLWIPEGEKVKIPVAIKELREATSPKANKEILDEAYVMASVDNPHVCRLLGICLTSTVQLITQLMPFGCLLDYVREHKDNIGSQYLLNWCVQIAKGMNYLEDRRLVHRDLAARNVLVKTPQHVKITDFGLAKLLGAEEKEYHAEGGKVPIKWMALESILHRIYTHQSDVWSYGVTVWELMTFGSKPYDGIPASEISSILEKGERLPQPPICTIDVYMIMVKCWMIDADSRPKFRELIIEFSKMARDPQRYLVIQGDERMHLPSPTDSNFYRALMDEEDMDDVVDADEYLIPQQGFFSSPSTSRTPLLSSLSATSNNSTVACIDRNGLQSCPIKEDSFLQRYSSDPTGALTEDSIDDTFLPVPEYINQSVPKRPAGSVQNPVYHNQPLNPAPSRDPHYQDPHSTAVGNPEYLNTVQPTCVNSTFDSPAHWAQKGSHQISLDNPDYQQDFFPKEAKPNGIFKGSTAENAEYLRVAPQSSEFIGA
UniProt P00533, 25-1210 L858R: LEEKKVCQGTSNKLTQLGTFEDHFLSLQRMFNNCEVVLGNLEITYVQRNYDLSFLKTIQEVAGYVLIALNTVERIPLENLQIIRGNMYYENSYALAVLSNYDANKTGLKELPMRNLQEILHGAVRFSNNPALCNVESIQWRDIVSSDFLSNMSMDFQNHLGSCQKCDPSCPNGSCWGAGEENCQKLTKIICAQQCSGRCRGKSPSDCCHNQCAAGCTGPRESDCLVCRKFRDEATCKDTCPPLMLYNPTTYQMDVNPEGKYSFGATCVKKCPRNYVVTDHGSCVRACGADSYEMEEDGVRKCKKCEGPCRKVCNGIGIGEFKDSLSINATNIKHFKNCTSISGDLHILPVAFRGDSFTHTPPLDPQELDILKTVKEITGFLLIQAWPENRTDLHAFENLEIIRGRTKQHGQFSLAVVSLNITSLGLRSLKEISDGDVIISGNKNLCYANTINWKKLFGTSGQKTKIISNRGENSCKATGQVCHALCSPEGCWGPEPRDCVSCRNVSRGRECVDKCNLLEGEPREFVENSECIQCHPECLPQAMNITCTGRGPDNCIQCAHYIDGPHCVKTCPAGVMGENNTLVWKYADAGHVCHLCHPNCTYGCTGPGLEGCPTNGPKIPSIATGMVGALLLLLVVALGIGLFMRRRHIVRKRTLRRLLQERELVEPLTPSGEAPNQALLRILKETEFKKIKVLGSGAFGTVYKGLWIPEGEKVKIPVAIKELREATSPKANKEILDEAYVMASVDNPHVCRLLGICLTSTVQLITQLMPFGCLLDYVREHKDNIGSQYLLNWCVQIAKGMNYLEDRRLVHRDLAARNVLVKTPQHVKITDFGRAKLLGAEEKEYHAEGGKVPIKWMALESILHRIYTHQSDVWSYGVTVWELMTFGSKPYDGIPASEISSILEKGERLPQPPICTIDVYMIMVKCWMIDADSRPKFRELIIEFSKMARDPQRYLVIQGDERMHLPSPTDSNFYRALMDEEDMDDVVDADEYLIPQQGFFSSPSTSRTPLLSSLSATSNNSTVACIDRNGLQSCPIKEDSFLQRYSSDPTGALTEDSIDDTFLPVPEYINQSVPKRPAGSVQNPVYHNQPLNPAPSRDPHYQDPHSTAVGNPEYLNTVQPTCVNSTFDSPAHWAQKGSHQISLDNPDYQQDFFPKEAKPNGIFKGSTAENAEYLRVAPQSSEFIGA

For `Cc1cc(C(=O)Nc2nc3cccc(Cl)c3n2[C@@H]2CCCCN(C(=O)/C=C/CN(C)C)C2)ccn1` [EGF816, nazartinib, reference compound], the Ki in experiment [1] was 7.7 ± 2.3 nM; in experiment [5], 10 ± 2.7 nM; in experiment [6], 25 ± 7.8 nM. In addition, the IC50 came out at 1.7 ± 0.8 nM in experiment [2], 0.3 ± 0.1 nM in experiment [3] and 0.6 ± 0.3 nM in experiment [4].

As usually defined, the Ki is a dissociation constant, usually derived from enzyme kinetics or from competition with a known ligand. The low end stands for a stronger hold on the target, the high end for a looser hold on the target. A word on the IC50: it is the midpoint of a concentration-inhibition curve. Read a high IC50 as weaker potency in that assay.

(Values after paper PMC6886544.)
